The assay concerns the target T1, MMP-2 (Homo sapiens, UniProt P08253).
T1 construct: Human MMP-2 full length (aa 1-660)
T1 sequence (P08253 30-660): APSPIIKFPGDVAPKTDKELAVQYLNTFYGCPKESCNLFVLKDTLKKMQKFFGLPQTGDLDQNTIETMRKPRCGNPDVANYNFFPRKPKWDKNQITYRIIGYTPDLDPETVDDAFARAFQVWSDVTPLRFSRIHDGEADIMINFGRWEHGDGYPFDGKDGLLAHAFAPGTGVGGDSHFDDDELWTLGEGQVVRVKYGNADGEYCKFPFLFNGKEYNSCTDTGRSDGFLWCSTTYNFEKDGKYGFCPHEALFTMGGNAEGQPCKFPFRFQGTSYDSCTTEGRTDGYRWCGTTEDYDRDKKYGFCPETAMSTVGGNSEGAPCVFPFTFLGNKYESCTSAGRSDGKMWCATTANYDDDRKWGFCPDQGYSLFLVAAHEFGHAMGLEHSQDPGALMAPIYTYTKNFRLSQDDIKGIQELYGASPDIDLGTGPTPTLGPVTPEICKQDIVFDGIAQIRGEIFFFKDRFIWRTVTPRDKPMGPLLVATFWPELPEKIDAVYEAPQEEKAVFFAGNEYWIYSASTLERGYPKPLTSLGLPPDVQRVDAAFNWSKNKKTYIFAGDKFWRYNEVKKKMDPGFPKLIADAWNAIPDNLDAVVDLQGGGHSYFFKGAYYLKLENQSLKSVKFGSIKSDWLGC
In words: MMP enzymatic assay (Trupoint peptide), MMP-2. In kind it is biochemical. As to conditions: read-out: MMP-2 nM IC50. On the procedure: [formula] • 1) Prepare appropriate 1×MMP assay buffer from 10× stock. […] Need to prepare a 2.5× concentration stock (2.5 μM) to achieve this concentration in 50 μl. Dilute compound to 2.5 mM in 100% DMSO (a 1:40 dilution), then dilute the 2.5 mM compound to 2.5 μM (1:1000) into 1× assay buffer. Make 1 ml 2.5 μM compound in assay buffer. • 4) Fill the rows B through P of a 384-well plate with assay buffer+0.1% DMSO. • 5) Add 30 ul of the 2.5 μM compound in assay buffer to the top row of the plate, doing each compound in triplicate. The plate setup should be as follows, using GM6001 as plate reference compound:
• 6) Serially dilute 10 μl down the plate to achieve 1:3 dilutions in subsequent wells. After each dilution, change pipette tips to avoid compound carryover. Discard the remaining 10 μl after diluting into the final row. • 7) Prepare enzyme dilutions at 2.5× of final desired concentration (see below). Will need 10 ml enzyme solution per plate. Add enzyme to plate, 20 μl per well. Incubate 1 hr.
• 8) Dilute the 500 μM Trupoint peptide 1:1000 into assay buffer to achieve a 5× working stock of 500 nM. Prepare 5 ml total per plate. Add 10 ul of substrate to each well to achieve a final concentration of 100 nM in well. […] Read in plate reader. […]

pIC50: −log10 of the molar value.

Turning to `O=C1[C@H](NS(=O)(=O)c2ccc(Oc3ccc(Cl)cc3)cc2)CCCN1O` [Compound 57, (R)-4-(4-Chloro-phenoxy)-N-(1-hydroxy-2-oxo-piperidin-3-yl)-benzene-sulfonamide], the pIC50 was 6.97.
